In PMC7112945:

Key:
[1] = target: Kv7.1-cyan fluorescent protein (Kv7.1-CFP) (human) (UniProt P51787); test: FRET or BRET
[2] = target: Kv7.1-cyan fluorescent protein (Kv7.1-CFP) (human) (UniProt P51787); test: FRET or BRET; remark: listed apart in the source

FRET efficiency [1]: 0.17
FRET efficiency [2]: 0.14
FRET efficiency (ER-PM+ junctions) [2]: 0.14
FRET efficiency (energy transfer efficiency, EF) [2]: 0.15%
Substance: KCNE1-yellow fluorescent protein (KCNE1-YFP), P15382 1-129 (natural protein; other documents disagree on this pair)

Like-named read-outs stand apart in the source and are kept apart here.
